# Data reported in patent US6340696B1, “Viral treatment” (The Procter & Gamble Company, priority 1999, dated 2002).
# What was measured:
# [1] = system: Madin-Darby bovine kidney (MDBK) cells; assay: Cytotoxicity in MDBK cells (drug toxicity control wells, XTT)
# Experimental: (§1) Madin-Darby bovine kidney (MDBK) cells were passaged in T-75 flasks for use in the assay. On the day preceding the assay, the cells were trypsinized, pelleted, counted and resuspended at 6×10^4/well in tissue culture medium. Cells were added to 96 well flat bottom plates in a volume of 100 μl per well.
# Interferon was purchased from PBL Biomedical Laboratories (New Brunswick, N.J.) and was in PBS solutions. On the day of testing, the drug stock is diluted in the medium to the desired high concentration and then further diluted in the medium in half log series.
# The day following plating of cells, plates are removed from the incubator, and medium is removed and discarded. Drug dilutions are added to appropriate wells of the microtiter plate in a volume of 100 μl per well. Each dilution is set up in triplicate. Complete medium or complete medium containing appropriately diluted virus is added to appropriate wells in a volume of 100 μl per well.
# The format of the test plate has been standardized. Each plate contains cell control wells (cell only), virus control wells (cells plus virus), drug toxicity control wells (cells plus drug only), drug colorimetric control wells (drug only) as well as experimental wells (drugs plus cells plus virus).
# The cell viability was evaluated by a dye (XTT) uptake procedure. XTT-tetraolium is metabolized by the mitochontrial enzymes of metabolically active cells to a soluble formazan product, allowing the rapid quantitative analysis of the inhibition of virus-induced cell killing by antiviral test substances.
# XTT solution was prepared daily as a stock of 1 mg/ml in PBS. Phenazine methosulfate (PMS) solution was prepared at 15 mg/ml in PVBS and stored in the dark at −20° C. STT/PMS stock was prepared immediately before use by diluting PMS 1:100 into PBS and adding 40 μl per ml of XTT solution. Fifty microliters of XTT/PMS was added to each well of the plate (each well had been loaded with 100 μl fresh medium) and the plate was reincubated for 4 hours at 37° C.
# Adhesive plate sealers were used in place of the lids, the sealed plate was inverted several times to mix the soluble formazan product and the plate was read spectrophotometrically at 450 nm (XTT) with a Molecular Devices Vmax plate reader.
# The efficacy and toxicity of inteferons are analyzed using a computer program (developed by Southern Research Institute) which calculates % CPE reduction, % cell viability, IC25,50 & 95, TC5,50 & 95 and other indices.
# Combination effects are analyzed statistically by Prichard and Shipman method. Effects of the drug combination on efficacy and toxicity are calculated based on the activity or toxicity of the two compounds when tested alone. The expected additive inhibition rate of virus production or the expected additive cell viability rate subtracted from the experimentally determined inhibition rate or viability rate at each combination concentration results in a positive value (synergy), a negative value (antagonism), or zero (addivity).
# BVDV = BVDV antiviral assay in MDBK cells, XTT readout of inhibition of virus-induced cell killing; assay type: cell-based; conditions: TC50/IC50
# Experimental: as §1
# A pretitered aliquot of virus is removed from the freezer (−80° C.) and allowed to thaw slowly to room temperature in a biological safety cabinet. The virus is diluted into tissue culture medium such that the amount of virus added to each well in a volume of 100 μl will be the amount determined to give complete cell killing at 6 days post-infection.
# Interferon was purchased from PBL Biomedical Laboratories (New Brunswick, N.J.) and was in PBS solutions. […]
# The cell viability was evaluated by a dye (XTT) uptake procedure. XTT-tetraolium is metabolized by the mitochontrial enzymes of metabolically active cells to a soluble formazan product, allowing the rapid quantitative analysis of the inhibition of virus-induced cell killing by antiviral test substances. […]
# Adhesive plate sealers were used in place of the lids, the sealed plate was inverted several times to mix the soluble formazan product and the plate was read spectrophotometrically at 450 nm (XTT) with a Molecular Devices Vmax plate reader. […]
# Combination effects are analyzed statistically by Prichard and Shipman method. […]
structure (smiles),measurement,setting,value
"NC(=O)c1ncn([C@@H]2O[C@H](CO)[C@@H](O)[C@H]2O)n1 [Ribavirin, 1-β-D-ribofuranosyl-1H-1,2,4-triazole-3carboxamide, reference compound]",Cytotoxicity Percentage,"[1]; Compound conc 0, Ribavirin conc 0.075",−15.1%
same,Cytotoxicity Percentage,"[1]; Compound conc 0, Ribavirin conc 0.238",−8.6%
same,Cytotoxicity Percentage,"[1]; Compound conc 0, Ribavirin conc 0.751",−12.3%
same,Cytotoxicity Percentage,"[1]; Compound conc 0, Ribavirin conc 2.373",27.2%
same,Cytotoxicity Percentage,"[1]; Compound conc 0, Ribavirin conc 7.5",46.7%
same,Cytotoxicity Percentage,"[1]; Ribavirin conc 0.075, INF-αA conc 0",0%
same,Cytotoxicity Percentage,"[1]; Ribavirin conc 0.238, INF-αA conc 0",0.6%
same,Cytotoxicity Percentage,"[1]; Ribavirin conc 0.751, INF-αA conc 0",0%
same,Cytotoxicity Percentage,"[1]; Ribavirin conc 2.373, INF-αA conc 0",10.8%
same,Cytotoxicity Percentage,"[1]; Ribavirin conc 7.500, INF-αA conc 0",54.2%
same,TI,BVDV,10.82
